The results in this text go back to ChEMBL document CHEMBL5257130, “Methyl and Fluorine Effects in Novel Orally Bioavailable Keap1-Nrf2 PPI Inhibitor” (ACS Med Chem Lett, 2023).

Chains of the proteins cited; added tags and fusions are not shown. Lines headed by an entry give the natural chain unless they say otherwise; changes in a name come on top.
UniProt O54968: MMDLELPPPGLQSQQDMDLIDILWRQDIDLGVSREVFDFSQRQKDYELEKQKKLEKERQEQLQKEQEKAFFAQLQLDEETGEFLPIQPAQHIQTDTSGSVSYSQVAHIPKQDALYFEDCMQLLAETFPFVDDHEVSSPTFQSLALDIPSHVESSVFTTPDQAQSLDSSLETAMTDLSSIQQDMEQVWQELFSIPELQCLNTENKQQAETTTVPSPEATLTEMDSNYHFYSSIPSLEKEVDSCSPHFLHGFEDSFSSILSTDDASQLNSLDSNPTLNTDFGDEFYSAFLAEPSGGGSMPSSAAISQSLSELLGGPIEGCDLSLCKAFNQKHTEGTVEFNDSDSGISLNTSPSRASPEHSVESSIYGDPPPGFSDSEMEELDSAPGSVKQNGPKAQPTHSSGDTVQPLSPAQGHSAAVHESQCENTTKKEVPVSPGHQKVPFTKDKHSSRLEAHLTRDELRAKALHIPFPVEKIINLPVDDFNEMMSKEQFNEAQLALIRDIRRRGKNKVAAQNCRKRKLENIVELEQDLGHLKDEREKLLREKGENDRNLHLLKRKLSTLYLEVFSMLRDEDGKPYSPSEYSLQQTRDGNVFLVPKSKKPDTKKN
UniProt P57790: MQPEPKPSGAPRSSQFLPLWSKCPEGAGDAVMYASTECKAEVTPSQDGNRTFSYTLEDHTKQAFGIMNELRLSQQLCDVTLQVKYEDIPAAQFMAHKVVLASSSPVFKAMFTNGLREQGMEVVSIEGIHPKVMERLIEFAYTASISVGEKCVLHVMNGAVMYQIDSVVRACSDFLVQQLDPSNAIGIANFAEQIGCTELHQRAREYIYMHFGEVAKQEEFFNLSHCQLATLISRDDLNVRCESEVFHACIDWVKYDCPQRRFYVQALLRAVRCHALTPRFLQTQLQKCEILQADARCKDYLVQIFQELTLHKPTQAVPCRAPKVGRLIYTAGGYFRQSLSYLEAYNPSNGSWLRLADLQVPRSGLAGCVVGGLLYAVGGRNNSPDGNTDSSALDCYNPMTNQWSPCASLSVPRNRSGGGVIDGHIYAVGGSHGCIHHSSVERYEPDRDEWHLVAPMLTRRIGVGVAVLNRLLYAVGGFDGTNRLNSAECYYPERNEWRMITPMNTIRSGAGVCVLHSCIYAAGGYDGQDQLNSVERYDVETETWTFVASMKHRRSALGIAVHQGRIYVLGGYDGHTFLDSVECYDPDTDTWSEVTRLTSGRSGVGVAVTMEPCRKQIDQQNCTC

In the experiment the target is KEAP1/NRF2 (Rattus norvegicus) (UniProt O54968+P57790). Put plainly: In vivo inhibition of Nrf2-Keap1 Kelch domain protein-protein interaction in po dosed Wistar rat kidney assessed as increase in HO-1 protein level by measuring fold change at 30 mg/kg incubated for 6 hrs by ELISA assay relative to control. It counts as functional, organism-based. Background: ELISA stands for enzyme-linked immunosorbent assay.

SMILES strings stand for the structures.

`Cc1ccc([C@@H](NC(=O)[C@@H](F)c2ccc3c(c2)CCCC3)[C@@H](C)C(=O)O)cc1`: the fold change (FC) was 4.6.
